Consider two compounds from ChEMBL document CHEMBL1134679, “Exploiting subsite S1 of trypsin-like serine proteases for selectivity: potent and selective inhibitors of urokinase-type plasminogen activator” (J Med Chem, 2001).

The assay concerns the target Urokinase-type plasminogen activator (Homo sapiens, UniProt P00749). Description: The compound was tested for inhibition of human urokinase type plasminogen activator (microPa).

Molecules are shown by their SMILES.

As for `N=C(N)c1cc2cc(-c3cccc(-c4ccccc4)c3O)[nH]c2cc1F`, the inhibition constant Ki – broadly, a dissociation constant, usually derived from enzyme kinetics or from competition with a known ligand – is 0.02 µM. The result for `N=C(N)c1cc2cc(-c3cccc(-c4ccccc4)c3O)[nH]c2cc1O` reads 2 µM.
